The entries are a selection whose mix differs from that of the whole data set. Some structures show a salt or complex split into parts, the way the source records it. Calls of active or inactive are those of the source.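 Rule for the calls: active = inhibition of the luminescence signal of 40% or more relative to plate controls, in a single-dose primary screen at 18.75 µM; inactive = the rest.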

The values below come from PubChem BioAssay AID624352 (Sanford-Burnham Center for Chemical Genomics, 2012).

A short description of the experiment: blockers of HIF-2a driven luciferase – luminescence, 786-0 RCC cells, primary screen (AID 624352). Particulars: 786-0 RCC cells HIF-2a reporter, overnight, at 18.8 µM, active compounds read high.
Broadly, the inhibition is the change of the read-out against control, counted positive when it falls. In the case of `COc1ccc(OP(C)(=O)Nc2ccccn2)cc1` (stereo not drawn), the inhibition was inactive: -3.5%.
In the case of `CN(C)CCOC(=O)C(O)(c1ccccc1)C1CCCC1` (stereo not drawn), the inhibition was inactive: 3.13%.
Next, `COc1ccccc1OP(C)(=O)Nc1ccc(Br)cc1` (stereo not drawn): inactive: -12.8%; `CP(=O)(Nc1ccccn1)Oc1ccccc1` (stereo not drawn): inactive: 10.5%; `COc1ccccc1OP(C)(=O)Nc1ccc(C)cc1C` (stereo not drawn): inactive: 10.1%.
Regarding `CCc1ccc(OP(C)(=O)O)cc1`, the inhibition is inactive: 11.1%.
Regarding `O=[N+]([O-])c1cc([N+](=O)[O-])c(Nc2ccccn2)c([N+](=O)[O-])c1`, the inhibition was inactive: -0.574%.
`Cc1c(NP(C)(=O)Oc2ccc(C(C)C)cc2)c(=O)n(-c2ccccc2)n1C` (stereo not drawn): the inhibition is inactive: 17.3%.
Next, `COc1ccccc1OP(C)(=O)Nc1ccc(C)c(C)c1` (stereo not drawn): inactive: 14.7%; `COc1ccc(OP(C)(=O)Nc2ccccc2Br)cc1` (stereo not drawn): inactive: 15.2%; `O=C1C(O)=C([N+](=O)[O-])C(=O)C(O)=C1[N+](=O)[O-]`: inactive: 5.26%.
Next, `Cc1cc(C)cc(OP(C)(=O)Nc2cccc(C(F)(F)F)c2)c1` (stereo not drawn): inactive: 6.79%; `CP(=O)(OCCOc1ccccc1)OCCOc1ccccc1`: inactive: 17.4%.
In the case of `CCCCCCCCCCCCCCCC1C[N+](C)(C)CCOP(C)(=O)O1` (stereo not drawn), the inhibition is active: 54.7%.
The value for `CP(=O)(Nc1ccc(Cl)cc1Cl)Oc1ccccc1` (stereo not drawn) was inactive: -4.48%; that for `CCOC(=O)c1ccc(NP(C)(=O)Oc2ccc(Cl)cc2)cc1` (stereo not drawn) was inactive: 22.6%.
For the compound `CP(=O)(OC12CC3CC(CC(C3)C1)C2)OC12CC3CC(CC(C3)C1)C2`, the inhibition was inactive: 13.5%.
With `COc1ccccc1OP(C)(=O)Nc1c(C)n(C)n(-c2ccccc2)c1=O` (stereo not drawn), the inhibition was inactive: 0.357%.
In the case of `O=C(OCCCN1CCCC1)C(O)(c1ccccc1)C1CCCCC1` (stereo not drawn), the inhibition was inactive: 4.08%.
Next, `CP(=O)(Oc1ccccc1)N1CCOC1=O` (stereo not drawn): inactive: -1.11%.
`CCc1ccc(OP(C)(=O)Nc2cccnc2)cc1` (stereo not drawn): the inhibition was inactive: 6.22%.
Next, `CCN(CC)CC(O)COC(=O)C(O)(c1ccccc1)C1CCCCC1` (stereo not drawn): inactive: 4.26%; `COc1ccc(OP(C)(=O)Nc2ccc(Br)cc2)cc1` (stereo not drawn): inactive: -14%.
The value for `CN(C)C(=O)c1c([N+](=O)[O-])cc([N+](=O)[O-])cc1[N+](=O)[O-]` was inactive: -2.3%; that for `CC(C)(C)c1ccc(OP(C)(=O)O)cc1` was inactive: 6.49%.
The value for `COc1ccccc1OP(C)(=O)Nc1ccccc1Br` (stereo not drawn) was inactive: 11.4%; that for `CP(=O)(Nc1ccc(Cl)cc1)Oc1ccc(F)cc1` (stereo not drawn) was inactive: 0.87%; that for `CCOP(C)(=S)SCC(=O)NC(C)(CC)C(=O)O` (stereo not drawn) was inactive: 7.65%.
In the case of `CP(=O)(Nc1ccc(SC(F)(F)F)cc1)Oc1ccc(F)cc1` (stereo not drawn), the inhibition was inactive: 16.6%.
Consider `Cc1ccccc1NP(C)(=O)Nc1ccccc1C`, for which the inhibition was inactive: 17.6%.
As for `O=[N+]([O-])c1cc([N+](=O)[O-])c(C(F)(F)F)c([N+](=O)[O-])c1O`, the inhibition is inactive: -4.26%.
Next, `CP(=O)(Nc1ccc2c(c1)OCCO2)Oc1ccccc1` (stereo not drawn): inactive: 6.02%.
The value for `CN(C)CCOC(=O)C(O)(c1ccccc1)C1CCCCC1` (stereo not drawn) was inactive: 3.14%; that for `COc1ccc(NP(C)(=O)Oc2ccccc2OC)cc1` (stereo not drawn) was inactive: 10.7%; that for `COc1ccc(OP(C)(=O)Nc2cccc(Br)c2)cc1` (stereo not drawn) was inactive: 13.8%.
The value for `Cc1c(C(c2ccc3c(c2)OCO3)c2c(C)n(C)n(-c3ccccc3)c2=O)c(=O)n(-c2ccccc2)n1C.O=[N+]([O-])c1cc([N+](=O)[O-])c(O)c([N+](=O)[O-])c1` was inactive: 9.28%; that for `O=[N+]([O-])c1ccc(OP2(=O)COCCO2)cc1` (stereo not drawn) was inactive: 6.26%.
For `Cc1cc(-c2cccc3ccccc23)c(C)cn1.O=[N+]([O-])c1cc([N+](=O)[O-])c(O)c([N+](=O)[O-])c1`, the inhibition was inactive: -6.29%.
Next, `O=[N+]([O-])c1cc([N+](=O)[O-])c(NCC2CCS(=O)(=O)C2)c([N+](=O)[O-])c1` (stereo not drawn): inactive: 30.1%; `CCOC(=O)c1ccc(NP(C)(=O)Oc2ccc(F)cc2)cc1` (stereo not drawn): inactive: 10.4%.
The value for `COc1ccc(OP(C)(=O)Nc2ccc(SC(F)(F)F)cc2)cc1` (stereo not drawn) was inactive: 3.68%.
Next, `CCN(CC)CCCNc1ccccc1[N+](=O)[O-].O=[N+]([O-])c1cc([N+](=O)[O-])c(O)c([N+](=O)[O-])c1`: inactive: 2.57%; `CP(=O)(Nc1ccccc1)Oc1ccc(F)cc1` (stereo not drawn): inactive: -5.45%.
For `CCCCCOc1ccc(NP(C)(=O)Oc2ccc(Cl)cc2Cl)cc1` (stereo not drawn), the inhibition was inactive: -22.1%.
Take `O=[N+]([O-])c1cc([N+](=O)[O-])c(OC2CCCCC2O)c([N+](=O)[O-])c1` (stereo not drawn): the inhibition was inactive: 18.6%.
The value for `Cc1c([N+](=O)[O-])cc([N+](=O)[O-])c(Br)c1[N+](=O)[O-]` was inactive: 1.81%; that for `CCN(CC)CCCOC(=O)C(O)(c1ccccc1)C1CCCCC1` (stereo not drawn) was inactive: 8.15%.
The value for `CP(=O)(Nc1ccccc1F)Oc1ccccc1` (stereo not drawn) was inactive: 9.24%.
Next, `CC(C)c1ccc(OP(C)(=O)Nc2ccc(SC(F)(F)F)cc2)cc1` (stereo not drawn): inactive: 6.1%; `O=[N+]([O-])c1cc([N+](=O)[O-])c(Nc2ccc(Cl)cc2)c([N+](=O)[O-])c1`: inactive: -26.6%.
As to `COc1ccc2c(c1O)-c1c(O)c(OC)cc3c1[C@H](C2)[N+](C)(C)CC3.O=[N+]([O-])c1cc([N+](=O)[O-])c([O-])c([N+](=O)[O-])c1[O-]`, the inhibition was inactive: -0.942%.
In the case of `O=C(OC1CN2CCC1CC2)c1ccc([N+](=O)[O-])cc1` (stereo not drawn), the inhibition was inactive: -0.895%.
The value for `O=C(OCCN1CCN(CCOCc2ccccc2)CC1)C(O)(c1ccccc1)c1ccccc1` was inactive: 5.44%; that for `CCOC(=O)c1ccc(NP(C)(=O)Oc2cc(C)cc(C)c2)cc1` (stereo not drawn) was inactive: 15.9%.
Next, `Cc1cc(C)cc(OP(C)(=O)Nc2ccc(C)cc2C)c1` (stereo not drawn): inactive: 11.4%; `COc1ccccc1OP(C)(=O)Nc1cccc(Br)c1` (stereo not drawn): inactive: 11.7%.
The value for `Cc1ccc(C)c(NP(C)(=O)Oc2ccccc2)c1` (stereo not drawn) was inactive: 15.6%; that for `Cc1cc(C)cc(OP(C)(=O)Nc2ccccn2)c1` (stereo not drawn) was inactive: 1.98%; that for `O=C(O)c1cccc(Nc2c([N+](=O)[O-])cc([N+](=O)[O-])cc2[N+](=O)[O-])c1` was inactive: 9.19%.
On to `CC1=NCCc2c1[nH]c1ccccc21.O=[N+]([O-])c1cc([N+](=O)[O-])c(O)c([N+](=O)[O-])c1`, for which the inhibition was inactive: 1.48%.
The value for `O=[N+]([O-])c1cc([N+](=O)[O-])c(Nc2nnnn2CCO)c([N+](=O)[O-])c1` was inactive: 0.0939%.
On to `CC1=C2N=C(C=C3N=C(C(C)=C4[N-][C@@](C)([C@@H]5N=C1[C@](C)(CCC(=O)NC[C@@H](C)OP(=O)([O-])O[C@H]1[C@@H](O)[C@@H](n6cnc7cc(C)c(C)cc76)O[C@@H]1CO)[C@H]5CC(N)=O)[C@@](C)(CC(N)=O)[C@@H]4CCC(N)=O)[C@@](C)(CC(N)=O)[C@@H]3CCC(N)=O)C(C)(C)[C@@H]2CCC(N)=O.[C-]#N.[Co+3]`, for which the inhibition was inactive: -11.9%.
The value for `CCOC(=O)C(CC)C1=NC(C)(C)Cc2ccccc21.O=[N+]([O-])c1cc([N+](=O)[O-])c(O)c([N+](=O)[O-])c1` (stereo not drawn) was inactive: 11.2%.
Consider `COc1ccc(-c2ccccn2)cc1.O=[N+]([O-])c1cc([N+](=O)[O-])c(O)c([N+](=O)[O-])c1`, for which the inhibition was inactive: -68.8%.
Next, `CP(=O)(Nc1ccc(SC(F)(F)F)cc1)Oc1ccccc1` (stereo not drawn): inactive: 7.65%; `CCCOc1ccc(NP(C)(=O)Oc2ccc(Cl)cc2)cc1` (stereo not drawn): inactive: 14.5%; `CN1CCCCC1COC(=O)C1(O)c2ccccc2CCc2ccccc21` (stereo not drawn): inactive: 6.79%.
Next, `COc1ccccc1OP(C)(=O)Nc1c(C)cccc1C` (stereo not drawn): inactive: 1.08%.
For `CN(Cc1cccnc1)C(=O)COc1ccc(Cl)c(Cl)c1.O=[N+]([O-])c1cc([N+](=O)[O-])c(O)c([N+](=O)[O-])c1`, the inhibition was inactive: -26.4%.
For `O=[N+]([O-])c1cc([N+](=O)[O-])c(-n2nnc3ccccc32)c([N+](=O)[O-])c1`, the inhibition is inactive: 16%.
The value for `Cc1nc2ccc3ccccc3c2s1.O=[N+]([O-])c1cc([N+](=O)[O-])c(O)c([N+](=O)[O-])c1` was inactive: -18.9%; that for `O=[N+]([O-])c1cc([N+](=O)[O-])c(-c2cnn(-c3ccccc3)c2)c([N+](=O)[O-])c1` was inactive: -0.979%.
The value for `CCc1ccc(OP(C)(=O)N2CCN(c3ccc([N+](=O)[O-])cc3)CC2)cc1` (stereo not drawn) was inactive: 19.9%; that for `CP(=O)(NC(=O)Nc1ccccc1)Oc1ccccc1` (stereo not drawn) was inactive: 5.79%.
The value for `Cc1cc(C)cc(OP(C)(=O)Nc2ccc(SC(F)(F)F)cc2)c1` (stereo not drawn) was inactive: 22.1%; that for `CP(=O)(Nc1ccc(SC(F)(F)F)cc1)Oc1ccc(Cl)cc1` (stereo not drawn) was inactive: 21.9%; that for `Cc1ccc(Nc2c([N+](=O)[O-])cc([N+](=O)[O-])cc2[N+](=O)[O-])cc1` was inactive: -24%.
For the compound `Cc1cccc(C)c1OP(C)(=O)Nc1ccc(SC(F)(F)F)cc1` (stereo not drawn), the inhibition is inactive: -85.4%.
On to `CP(=O)(Oc1ccccc1)OC(c1ccccc1)C(F)(F)F` (stereo not drawn), for which the inhibition was inactive: 18.8%.
The value for `CP(=O)(Nc1ccccn1)Oc1ccc(Cl)cc1` (stereo not drawn) was inactive: 6.21%.
Next, `O=[N+]([O-])c1cc([N+](=O)[O-])c(O)c([N+](=O)[O-])c1.c1ccc(Oc2ccncc2)cc1`: inactive: 13%; `CCOC(=O)c1ccc(NP(C)(=O)Oc2ccc(OC)cc2)cc1` (stereo not drawn): inactive: 16.2%.
For `CCOP(C)(=S)SCC(=O)NC(C)C(=O)O` (stereo not drawn), the inhibition was inactive: 13.6%.
Turning to `CP(=O)(Nc1ccccc1Br)Oc1ccccc1` (stereo not drawn), the inhibition was inactive: 15.4%.
`COc1ccccc1OP(C)(=O)Nc1ccccc1` (stereo not drawn): the inhibition was inactive: 15.9%.
Regarding `CP(=S)(Nn1cnnc1)Oc1ccccc1` (stereo not drawn), the inhibition was inactive: 13.4%.
The value for `O=[N+]([O-])c1ccc2c(c1)C=Nc1ccccc1O2` was inactive: 11.2%; that for `CC(C)(C)c1ccc(OP(C)(=O)Nc2ccc(SC(F)(F)F)cc2)cc1` (stereo not drawn) was inactive: 28.9%.
The value for `Cc1cccc(C)c1OP(C)(N)=O` (stereo not drawn) was inactive: 13.4%; that for `O=[N+]([O-])c1cc([N+](=O)[O-])c(Nc2cccnc2)c([N+](=O)[O-])c1` was inactive: -18.2%.
The value for `Cc1cc(C)cc(OP(C)(N)=O)c1` (stereo not drawn) was inactive: 12.8%.
In the case of `COc1ccccc1OP(C)(=O)Nc1cc(Cl)ccc1C` (stereo not drawn), the inhibition is inactive: 23.6%.
Next, `COc1ccc(OP(C)(=O)Nc2cccc(F)c2)cc1` (stereo not drawn): inactive: -2.36%.
Next, `COc1ccccc1OP(C)(=O)Nc1ccc(C)cc1` (stereo not drawn): inactive: 8.86%; `Cc1ccc(NP(C)(=O)Oc2ccccc2)c(C)c1` (stereo not drawn): inactive: 20.1%; `CCOC(=O)c1ccc(NP(C)(=O)Oc2ccccc2)cc1` (stereo not drawn): inactive: 3.42%.
The value for `CCN(CC)CCCOC(=O)C(O)(c1ccccc1)c1ccccc1` was inactive: 17.7%; that for `COc1ccccc1-c1ccccn1.O=[N+]([O-])c1cc([N+](=O)[O-])c(O)c([N+](=O)[O-])c1` was inactive: -1.6%.
